{"source": "patent US6936585B2", "about": "“Corticotropin releasing factor 2 receptor agonists” (priority 2002, dated 2005)", "key": {"CRF2R": {"biological_target": "T1, CRF2R (Homo sapiens, UniProt Q13324)", "T1 sequence (Q13324 1-411)": "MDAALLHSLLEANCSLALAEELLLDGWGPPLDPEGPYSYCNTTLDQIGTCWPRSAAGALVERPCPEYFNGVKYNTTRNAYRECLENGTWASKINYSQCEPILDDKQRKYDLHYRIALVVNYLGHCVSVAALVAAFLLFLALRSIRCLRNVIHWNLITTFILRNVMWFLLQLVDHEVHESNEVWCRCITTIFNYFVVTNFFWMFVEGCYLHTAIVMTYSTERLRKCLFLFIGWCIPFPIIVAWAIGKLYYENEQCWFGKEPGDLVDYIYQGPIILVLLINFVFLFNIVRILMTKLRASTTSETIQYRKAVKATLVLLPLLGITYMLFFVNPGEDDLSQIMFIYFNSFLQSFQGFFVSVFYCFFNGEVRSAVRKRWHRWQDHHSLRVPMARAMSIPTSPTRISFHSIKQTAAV", "test": "CRF2R agonist activation (EC50 / Emax), called comparative CRF binding", "assay_type": "cell-based", "details": "for Emax: read-out: CRF2R Emax", "method_in_brief": "(§1)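 Agonism at each human CRF receptor subtype is inferred from increased cAMP relative to vehicle, using cells expressing that subtype and either lysate cAMP measurement or a cAMP response element reporter.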"}, "CRF1R": {"biological_target": "T2, CRF1R (Homo sapiens, UniProt P34998)", "T2 sequence (P34998 24-415)": "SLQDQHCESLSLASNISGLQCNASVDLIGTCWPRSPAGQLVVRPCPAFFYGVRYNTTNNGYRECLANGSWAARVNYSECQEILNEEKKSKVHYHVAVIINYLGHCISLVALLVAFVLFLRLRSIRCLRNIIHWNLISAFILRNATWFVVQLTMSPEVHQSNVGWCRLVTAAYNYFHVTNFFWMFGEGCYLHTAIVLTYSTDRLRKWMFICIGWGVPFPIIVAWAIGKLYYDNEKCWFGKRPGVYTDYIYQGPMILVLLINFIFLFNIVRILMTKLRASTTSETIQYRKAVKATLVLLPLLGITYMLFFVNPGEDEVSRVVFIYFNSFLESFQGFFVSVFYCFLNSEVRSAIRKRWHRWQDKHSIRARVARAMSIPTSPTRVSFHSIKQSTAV", "test": "CRF1R agonist activation (EC50 / Emax), called comparative CRF binding", "assay_type": "cell-based", "details": "for Emax: read-out: CRF1R Emax", "method_in_brief": "as §1"}}}
{"smiles": "CC[C@H](C)[C@H](NC(=O)[C@@H](NC(=O)[C@H](CC(=O)O)NC(=O)[C@H](CC(C)C)NC(=O)[C@H](CC(C)C)NC(=O)[C@H](CC(C)C)NC(=O)[C@H](CCCNC(=N)N)NC(=O)[C@H](CC(N)=O)NC(=O)[C@H](CC(N)=O)NC(=O)[C@H](C)NC(=O)[C@H](C)NC(=O)[C@H](CCC(N)=O)NC(=O)[C@H](CCC(N)=O)NC(=O)[C@H](CCCCN)NC(=O)[C@H](CCC(=O)O)NC(=O)[C@H](CCCCN)NC(=O)[C@H](CCC(=O)O)NC(=O)[C@H](CCC(N)=O)NC(=O)[C@H](CCCCN)NC(=O)[C@H](CCC(=O)O)NC(=O)[C@@H](NC(=O)[C@H](CCC(=O)O)NC(=O)[C@@H](NC(=O)[C@H](CCSC)NC(=O)[C@H](CCCCN)NC(=O)[C@H](CCCNC(=N)N)NC(=O)[C@H](CC(C)C)NC(=O)[C@H](CC(C)C)NC(=O)[C@@H]1CCCN1C(=O)[C@@H](NC(=O)[C@@H]1CCCN1C(=O)[C@H](CC(C)C)NC(=O)[C@H](CC(=O)O)NC(=O)[C@@H](NC(=O)[C@H](CO)NC(=O)[C@@H](NC(=O)[C@@H]1CCCN1C(=O)[C@@H]1CCCN1C(=O)CNC(=O)[C@@H]1CCC(=O)N1)[C@@H](C)CC)[C@@H](C)CC)[C@@H](C)CC)[C@@H](C)CC)[C@@H](C)CC)[C@@H](C)O)C(N)=O", "note": "[compound 26]", "values": [{"measurement": "EC50", "setting": "CRF2R", "result": 91.8, "unit": "nM"}, {"measurement": "Emax", "setting": "CRF2R", "result": 86, "unit": "%"}, {"measurement": "EC50", "setting": "CRF1R; CRF1R EC50", "result": "> 1000", "unit": "nM"}, {"measurement": "Emax", "setting": "CRF1R", "result": 16, "unit": "%"}]}
{"smiles": "CC[C@H](C)[C@H](NC(=O)[C@@H](NC(=O)[C@H](CC(=O)O)NC(=O)[C@H](CC(C)C)NC(=O)[C@H](CC(C)C)NC(=O)[C@H](CC(C)C)NC(=O)[C@H](CCCNC(=N)N)NC(=O)[C@H](CC(N)=O)NC(=O)[C@H](CC(N)=O)NC(=O)[C@H](C)NC(=O)[C@H](C)NC(=O)[C@H](CCC(N)=O)NC(=O)[C@H](CCC(N)=O)NC(=O)[C@H](CCCCN)NC(=O)[C@H](CCC(=O)O)NC(=O)[C@H](CCCCN)NC(=O)[C@H](CCC(=O)O)NC(=O)[C@H](CCC(N)=O)NC(=O)[C@H](CCCCN)NC(=O)[C@H](CCC(=O)O)NC(=O)[C@@H](NC(=O)[C@H](CCC(=O)O)NC(=O)[C@@H](NC(=O)[C@H](CCSC)NC(=O)[C@H](CCCCN)NC(=O)[C@H](CCCNC(=N)N)NC(=O)[C@H](CC(C)C)NC(=O)[C@H](CC(C)C)NC(=O)[C@@H](NC(=O)[C@H](CC(C)C)NC(=O)[C@@H]1CCCN1C(=O)[C@H](CC(C)C)NC(=O)[C@H](CC(=O)O)NC(=O)[C@@H](NC(=O)[C@H](CO)NC(=O)[C@@H](NC(=O)[C@@H]1CCCN1C(=O)[C@@H]1CCCN1C(=O)CNC(=O)[C@@H]1CCC(=O)N1)[C@@H](C)CC)[C@@H](C)CC)[C@@H](C)CC)[C@@H](C)CC)[C@@H](C)CC)[C@@H](C)O)C(N)=O", "note": "[compound 194]", "values": [{"measurement": "Emax", "setting": "CRF2R", "result": 96, "unit": "%"}, {"measurement": "Emax", "setting": "CRF1R", "result": 94, "unit": "%"}]}
{"smiles": "CC[C@H](C)[C@H](NC(=O)[C@@H](NC(=O)[C@H](CC(=O)O)NC(=O)[C@H](CC(C)C)NC(=O)[C@H](CC(C)C)NC(=O)[C@H](CC(C)C)NC(=O)[C@H](CCCNC(=N)N)NC(=O)[C@H](CC(N)=O)NC(=O)[C@H](CC(N)=O)NC(=O)[C@H](C)NC(=O)[C@H](C)NC(=O)[C@H](CCC(N)=O)NC(=O)[C@H](CCC(N)=O)NC(=O)[C@H](CCCCN)NC(=O)[C@H](CCC(=O)O)NC(=O)[C@H](CCCCN)NC(=O)[C@H](CCC(=O)O)NC(=O)[C@H](CCC(N)=O)NC(=O)[C@H](CCCCN)NC(=O)[C@H](CCC(=O)O)NC(=O)[C@@H](NC(=O)[C@H](CCC(=O)O)NC(=O)[C@@H](NC(=O)[C@H](CCSC)NC(=O)[C@H](CCCCN)NC(=O)[C@H](CCCNC(=N)N)NC(=O)[C@H](CC(C)C)NC(=O)[C@H](CC(C)C)NC(=O)[C@H](CO)NC(=O)[C@@H](NC(=O)[C@@H]1CCCN1C(=O)[C@H](CC(C)C)NC(=O)[C@H](CC(=O)O)NC(=O)[C@@H](NC(=O)[C@H](CO)NC(=O)[C@@H](NC(=O)[C@@H]1CCCN1C(=O)[C@@H]1CCCN1C(=O)CNC(=O)[C@@H]1CCC(=O)N1)[C@@H](C)CC)[C@@H](C)CC)[C@@H](C)O)[C@@H](C)CC)[C@@H](C)CC)[C@@H](C)O)C(N)=O", "note": "[compound 43]", "values": [{"measurement": "Emax", "setting": "CRF2R", "result": 67, "unit": "%"}, {"measurement": "Emax", "setting": "CRF1R", "result": 10, "unit": "%"}]}
{"smiles": "CC[C@H](C)[C@H](NC(=O)[C@@H](NC(=O)[C@H](CC(=O)O)NC(=O)[C@H](CC(C)C)NC(=O)[C@H](CC(C)C)NC(=O)[C@H](CC(C)C)NC(=O)[C@H](CCCNC(=N)N)NC(=O)[C@H](CC(N)=O)NC(=O)[C@H](CC(N)=O)NC(=O)[C@H](C)NC(=O)[C@H](C)NC(=O)[C@H](CCC(N)=O)NC(=O)[C@H](CCC(N)=O)NC(=O)[C@H](CCCCN)NC(=O)[C@H](CCC(=O)O)NC(=O)[C@H](CCCCN)NC(=O)[C@H](CCC(=O)O)NC(=O)[C@H](CCC(N)=O)NC(=O)[C@H](CCCCN)NC(=O)[C@H](CCC(=O)O)NC(=O)[C@@H](NC(=O)[C@H](CCC(=O)O)NC(=O)[C@@H](NC(=O)[C@H](CCSC)NC(=O)[C@H](CCCCN)NC(=O)[C@H](CCCNC(=N)N)NC(=O)[C@H](CC(C)C)NC(=O)[C@H](CC(C)C)NC(=O)[C@H](Cc1c[nH]c2ccccc12)NC(=O)[C@@H](NC(=O)[C@@H]1CCCN1C(=O)[C@H](CC(C)C)NC(=O)[C@H](CC(=O)O)NC(=O)[C@@H](NC(=O)[C@H](CO)NC(=O)[C@@H](NC(=O)[C@@H]1CCCN1C(=O)[C@@H]1CCCN1C(=O)CNC(=O)[C@@H]1CCC(=O)N1)[C@@H](C)CC)[C@@H](C)CC)[C@@H](C)CC)[C@@H](C)CC)[C@@H](C)CC)[C@@H](C)O)C(N)=O", "note": "[compound 192]", "values": [{"measurement": "Emax", "setting": "CRF2R", "result": 97, "unit": "%"}, {"measurement": "Emax", "setting": "CRF1R", "result": 99, "unit": "%"}]}
{"smiles": "CC[C@H](C)[C@H](NC(=O)[C@H](CCCNC(=N)N)NC(=O)[C@H](C)NC(=O)[C@H](CC(N)=O)NC(=O)[C@@H](NC(=O)[C@@H](NC(=O)[C@H](C)NC(=O)[C@H](CCC(N)=O)NC(=O)[C@H](CCC(N)=O)NC(=O)[C@H](CCCCN)NC(=O)[C@H](CCC(=O)O)NC(=O)[C@H](CCCCN)NC(=O)[C@H](CCC(=O)O)NC(=O)[C@H](CCC(N)=O)NC(=O)[C@H](CCCCN)NC(=O)[C@H](CCC(=O)O)NC(=O)[C@@H](NC(=O)[C@H](CCC(=O)O)NC(=O)[C@@H](NC(=O)[C@H](CCSC)NC(=O)[C@H](CCCCN)NC(=O)[C@H](CCCNC(=N)N)NC(=O)[C@H](CC(C)C)NC(=O)[C@H](CC(C)C)NC(=O)[C@H](CCC(=O)O)NC(=O)[C@H](CC(C)C)NC(=O)[C@@H]1CCCN1C(=O)[C@H](CC(C)C)NC(=O)[C@H](CC(=O)O)NC(=O)[C@@H](NC(=O)[C@H](CO)NC(=O)[C@@H](NC(=O)[C@@H]1CCCN1C(=O)[C@@H]1CCCN1C(=O)CNC(=O)[C@@H]1CCC(=O)N1)[C@@H](C)CC)[C@@H](C)CC)[C@@H](C)CC)[C@@H](C)CC)[C@@H](C)O)[C@@H](C)O)C(=O)N[C@@H](CC(C)C)C(=O)N[C@@H](C)C(=O)N[C@@H](CCCNC(=N)N)C(=O)N[C@H](C(N)=O)C(C)C", "note": "[compound 143]", "values": [{"measurement": "Emax", "setting": "CRF2R", "result": 85.5, "unit": "%"}, {"measurement": "Emax", "setting": "CRF1R", "result": 100, "unit": "%"}]}
{"smiles": "CC[C@H](C)[C@H](NC(=O)[C@@H](NC(=O)[C@H](CC(=O)O)NC(=O)[C@H](CC(C)C)NC(=O)[C@H](CC(C)C)NC(=O)[C@H](CCCNC(=N)N)NC(=O)[C@H](C)NC(=O)[C@H](CC(N)=O)NC(=O)[C@H](CC(N)=O)NC(=O)[C@H](C)NC(=O)[C@H](C)NC(=O)[C@H](CCC(N)=O)NC(=O)[C@H](CCC(N)=O)NC(=O)[C@H](CCCCN)NC(=O)[C@H](CCC(=O)O)NC(=O)[C@H](CCCCN)NC(=O)[C@H](CCC(=O)O)NC(=O)[C@H](CCC(N)=O)NC(=O)[C@H](CCCCN)NC(=O)[C@H](CCC(=O)O)NC(=O)[C@@H](NC(=O)[C@H](CCC(=O)O)NC(=O)[C@@H](NC(=O)[C@@H](NC(=O)[C@H](CCCCN)NC(=O)[C@H](CCCNC(=N)N)NC(=O)[C@H](CC(C)C)NC(=O)[C@H](CC(C)C)NC(=O)[C@H](CCC(N)=O)NC(=O)[C@H](Cc1ccc(O)cc1)NC(=O)[C@@H]1CCCN1C(=O)[C@@H](NC(=O)[C@H](CC(=O)O)NC(=O)[C@@H](NC(=O)[C@H](CO)NC(=O)[C@@H](NC(=O)[C@@H]1CCCN1C(=O)[C@@H]1CCCN1C(=O)CNC(=O)[C@@H]1CCC(=O)N1)[C@@H](C)CC)[C@@H](C)CC)C(C)C)C(C)C)[C@@H](C)CC)[C@@H](C)CC)[C@@H](C)O)C(N)=O", "note": "[compound 374]", "values": [{"measurement": "Emax", "setting": "CRF2R", "result": 91, "unit": "%"}, {"measurement": "Emax", "setting": "CRF1R", "result": 11, "unit": "%"}]}
